High-throughput results deposited in PubChem by Broad Institute.
Shown are actives, neighbours in structure and some others; about 1.6% of the full set was active somewhere.
CAL PDZ FP-1: human CAL PDZ-peptide interaction inhibition | Q9HD26 | purified CAL PDZ, TMR-peptide fluorescence polarization, 1 h | inhibition, % at 20 µM | 330,000 tested, 0.02% active | AID 504414;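 active means highest replicate inhibition of at least 40%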;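 further: plate controls were DMSO neutral control wells for no effect and unlabeled competitor peptide control wells for full effect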
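Material – purified CerCALP PDZ construct · Detection – FP readout, S and P plane fluorescence · Measure – percent inhibition from loss of millipolarization · Controls – unlabelled peptide for full inhibition, DMSO wells as neutral · Probe or stimulus – TMR-labelled reporter peptide T*-PRC34 bound in PDZ groove · Times – 1 h at RT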
PglD inh: blocks C. jejuni PglD acetyltransferase activity | 360,000 tested, 0.098% active | inhibition, % at 12.5 µM | purified PglD enzyme, DTNB colorimetric CoA detection; in the data active means inhibition above about 16%, passing the limit was not always enough
ARNT-TACC3 inh: disrupts binding between human ARNT and TACC3; AlphaScreen His-ARNT PAS-B/GST-TACC3 binding, luminescence; TACC3 fragment carries E629A point mutation; inhibition, % at 9.99 µM; 390,000 tested, 0.66% active; Q9Y6A5;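 active means mean inhibition of replicates at least 50% and at least half of replicates each reaching 50%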;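 further: 0% = complete ARNT plus TACC3 wells and 100% = ARNT alone without TACC3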
Yeast UUG start: modulators of start codon recognition fidelity in yeast. S. cerevisiae UUG-firefly luciferase reporter, luminescence/redox ratio. activity score, % at 18.7 µM. 0.13% of 350,000 active. AID 602363;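 active = replicate mean at a twofold rise or more, about +100% in these data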;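 also: firefly luciferase made from a UUG start codon reports start codon fidelity; reporter light over untreated wells divided by growth signal over untreated wells; some hits fall short of that in this replicate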
Vif imaging: blocks HIV Vif function | HEK293T cells, Vif self-association by quenched fluorescence, imaging, 24 h | inhibition, % at 7.49 µM | 340,000 tested, 0.35% active; in the data active means inhibition above about 50%, passing the limit was not always enough
CAL PDZ FP-2: inhibitors of human CAL PDZ peptide binding; 300,000 tested, 0.92% active; purified CAL PDZ, TMR-peptide fluorescence polarization, 1 h; inhibition, % at 24.9 µM;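 active means mean inhibition of at least 30% with at least half of replicates also reaching 30%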;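 further: 0% = DMSO neutral control and 100% = excess unlabeled competitor peptide PRC23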
ARNT Alpha ctr-1: counter-screen for ARNT/TACC3 inhibitors: AlphaScreen artifacts; 1,200 tested, 50% active; AC50, µM (series often up to 68 µM), for the others: at the highest dose activity change, negative = signal decrease; AID 651705; His-ARNT PASB-GST AlphaScreen artifact counter-screen, luminescence; shares compounds with ARNT-TACC3 inh;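 active means every separate test run was called active for a drop in luminescence, with AC50 within twice the top valid dose, actives reach about 71 µM in these data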
ARNT Alpha ctr-2: produces AlphaScreen artifacts in ARNT-TACC3 counter-screen; AID 720564; Dual-tagged His-ARNT PASB-GST AlphaScreen artifact counter-screen; AC50, µM; 45 tested, 70% active; shares compounds with ARNT-TACC3 inh;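 active means luminescence drop, with half-maximal potency fitted within twice the sample's top valid dose, cut at about 70 µM in these data; inactive means the rest, including signal moving the wrong way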
* = called active by the depositor; · = not tested or not shown; [ ] = remark or other dose.

SMILES	CAL PDZ FP-1	PglD inh	ARNT-TACC3 inh	Yeast UUG start	Vif imaging	CAL PDZ FP-2	ARNT Alpha ctr-1	others
O=C(CSc1ccc(-c2ccccn2)nn1)NCc1ccccc1	-1.3	·	102.1*	·	8.6	-0.4	41.1µM*
O=C(CSc1ccc(-c2ccccn2)nn1)NC1CCCCC1	-0.6	·	54.9*	·	-0.3	-1.7	25.6µM*	ARNT Alpha ctr-2=19.8*
O=C(CSc1ccc(-c2ccccn2)nn1)NCc1ccc(F)cc1	0.2	·	54.7*	·	3.7	-8.6	29µM*
O=C(CSc1ccc(-c2cccc([N+](=O)[O-])c2)nn1)NCc1ccccc1	0.3	·	0.3	·	-1.3	0.5	·
O=C(CSc1ncccn1)NCc1ccc(F)cc1	0.1	-1.5	-8.1	-24.1	3.2	-2.1	·
C[C@@H]1CN([C@H](C)CO)C(=O)c2cc(NC(=O)CCCN(C)C)ccc2O[C@@H]1CN(C)S(=O)(=O)c1cn(C)cn1	·	1.2	0.9	-4.9	·	·	·
COc1ccc(CN(C)C[C@H]2Oc3ccc(NS(=O)(=O)c4ccc(F)cc4)cc3CC(=O)N([C@@H](C)CO)C[C@@H]2C)cc1	·	-1.7	-3.2	5.4	·	·	·
C[C@@H]1CN([C@H](C)CO)C(=O)Cc2cc(NC(=O)Cc3cn(C)c4ccccc34)ccc2O[C@H]1CN(C)C(=O)Nc1ccccc1	·	-0.1	-5.2	-2.0	·	·	·
C[C@@H]1CCCCO[C@H](CN(C)Cc2ccncc2)[C@H](C)CN([C@H](C)CO)C(=O)c2cc(NC(=O)Nc3cccc4ccccc34)ccc2O1	·	0.2	16.7	5.5	·	·	·
C[C@H]1CCCCO[C@@H](CN(C)C(=O)c2ccncc2)[C@@H](C)CN([C@@H](C)CO)C(=O)c2cc(NC(=O)NC3CCCCC3)ccc2O1	·	-0.9	-8.2	12.3	·	·	·
CO[C@@H]1CN(C)C(=O)c2cc(NC(=O)c3ccccc3)ccc2OC[C@@H](C)N(C(=O)C2CC2)C[C@H]1C	·	3.3	12.1*	8.2	·	·	1.9%[38 µM]
CO[C@H]1CN(C)C(=O)c2cc(NC(=O)NC3CCCCC3)ccc2OC[C@H](C)N(CC2CC2)C[C@@H]1C	·	0.6	57.0*	-0.8	·	·	-2.6%[42 µM]
CO[C@H]1CN(C)C(=O)c2cc(NC(=O)NC3CCCCC3)ccc2OC[C@@H](C)N(CC2CC2)C[C@H]1C	·	0.0	-8.1	-10.9	·	·	·
CCc1cc2c(=O)[nH]c(-c3ccccn3)nc2s1	-1.6	0.8	76.4*	-65.2	-7.6	-0.8	50.8µM*	ARNT Alpha ctr-2=16.8*
O=C(O)[C@H]1[C@H](CO)[C@H]2Cn3c(ccc(-c4ccccc4)c3=O)[C@H]2N1Cc1ccccc1F	·	-1.3	-0.8	·	·	·	·
COc1ccc(CN(C)C[C@H]2OCCCC[C@@H](C)Oc3ccc(NC(=O)CCCN(C)C)cc3C(=O)N([C@@H](C)CO)C[C@@H]2C)cc1	·	-2.5	0.3	1.3	·	·	·
c1ccc(-c2noc(-c3ccco3)n2)nc1	-1.8	3.2	·	-23.5	-1.7	-4.7	·
c1ccc(-c2nccc(-c3ccco3)n2)nc1	0.0	-7.6	59.2*	-24.2	7.8	5.1	56.5µM*
O=S(=O)(N[C@H]1CC[C@@H](CCn2cc(-c3cccc(F)c3)nn2)O[C@@H]1CO)c1ccccc1	·	-0.1	-1.8	0.1	·	·	·
O=C(Nc1ccc2c(c1)OCO2)c1ccc2c(c1)OCO2	-1.2	·	52.2*	·	-0.4	-0.3	-16.5%
O=C(Nc1ccc(F)c(F)c1)c1ccc2c(c1)OCO2	-1.2	1.7	4.3	-11.1	-1.3	-1.4	·
O=C(COC(=O)c1ccc([N+](=O)[O-])o1)Nc1ccc(F)cc1	1.0	-2.8	active	9.1	-1.7	-2.1	-5.2%
CC(NC(=O)COC(=O)c1ccc([N+](=O)[O-])o1)c1ccccc1 (stereo not drawn)	0.6	0.8	29.3*	-3.7	1.3	-1.8	1.4%
OCC1CCN(c2nc(-c3ccccn3)nnc2-c2ccccc2)CC1	·	·	·	·	·	·	2.84µM*
c1ccc(-c2nnc(-c3ccccn3)nc2N2CCC(C3CCCCC3)C2)cc1 (stereo not drawn)	·	·	·	·	·	·	5.28µM*

The listing continues:
SMILES	CAL PDZ FP-1	PglD inh	ARNT-TACC3 inh	Yeast UUG start	Vif imaging	CAL PDZ FP-2	ARNT Alpha ctr-1	others
C[C@@H]1CN([C@@H](C)CO)C(=O)c2cc(NS(=O)(=O)c3ccc(Cl)cc3)ccc2O[C@@H](C)CCCCO[C@@H]1CN(C)C(=O)Nc1ccc2c(c1)OCO2	·	2.1	-3.5	7.1	·	·	·
FC(F)(F)c1cnc(-c2cnc(-c3ccccn3)nc2)c(Cl)c1	-1.2	5.0	55.2*	-50.3	23.2	-2.9	-16.2%
FC(F)(F)c1cnc(-c2cnc(-c3ccncc3)nc2)c(Cl)c1	0.4	·	0.2	·	-1.2	-2.0	·
COc1ccc(S(=O)(=O)Nc2ccc3c(c2)C(=O)N([C@@H](C)CO)C[C@@H](C)[C@H](CN(C)C(=O)c2ccccc2)OCCCC[C@H](C)O3)cc1	·	1.5	-6.9	13.7	·	·	·
CN(Cc1ccccc1)C(=O)c1[nH]cnc1C(=O)Nc1nccs1	-1.3	-2.1	55.3*	-6.4	-3.9	-4.7	-30.0%
O=C(Nc1nccs1)c1nc[nH]c1C(=O)NCc1ccccc1	-0.8	-2.5	28.6	-18.2	-6.8	1.2	·
C[C@@H]1CCCCO[C@@H](CN(C)S(=O)(=O)c2cn(C)cn2)[C@H](C)CN([C@@H](C)CO)C(=O)c2cc(N(C)C)ccc2O1	·	1.9	9.3	4.8	·	·	·
CCOc1ccccc1Nc1nc(N)nc(CN(C)C2CCCCC2)n1	·	0.2	62.7*	-10.0	4.7	-3.6	-16.4%
CCOc1ccccc1Nc1nc(N)nc(CSc2nccc(C)n2)n1	·	-1.2	2.9	-1.0	-5.4	-6.6	·
O=C(CN1CCCCCC1)Nc1ccccc1[N+](=O)[O-]	·	7.1	50.8*	4.6	21.9	-8.8	-10.6%
CN1CCN(CC(=O)Nc2ccccc2[N+](=O)[O-])CC1	-1.5	-6.9	-2.0	-18.0	10.9	-2.6	·
Cc1ccc(/C=N/NC(=S)N2CCOCC2)cc1	0.2	1.6	45.4*	-26.6	-4.3	-5.0	-31.0%
CCN(CC)S(=O)(=O)c1ccc(NN)nc1	-1.6	·	55.5*	·	-1.1	0.0	45.2µM*
Cc1cccc(Nc2nc(N)nc(CCl)n2)c1C	·	-2.1	·	-11.1	3.2	·	·
Cc1ccccc1Nc1nc(N)nc(CN(C)Cc2ccccc2Cl)n1	-3.1	·	57.3*	-31.0	4.3	-1.4	-30.4%
CC(C)(C)c1ccc(CNc2nc(-c3ccccn3)nnc2-c2ccccc2)cc1	·	·	·	·	·	·	3.73µM*
Clc1cccc(CNc2nc(-c3ccccn3)nnc2-c2ccccc2)c1	·	·	·	·	·	·	2.17µM*
CC(C)(C)c1ccc(-c2nc(NCc3cccnc3)c3ccccc3n2)cc1	-2.6	·	-5.3	·	-9.6	-2.0	·
C[C@H](CO)N1C[C@H](C)[C@H](CN(C)Cc2cncnc2)Oc2cc(-c3ccncc3)ccc2S1(=O)=O	·	-3.0	4.6	-14.7	·	·	·

Molecules shown so far containing a tert-butyl group (2):
SMILES	CAL PDZ FP-1	PglD inh	ARNT-TACC3 inh	Yeast UUG start	Vif imaging	CAL PDZ FP-2	ARNT Alpha ctr-1	others
CC(C)(C)c1ccc(CNc2nc(-c3ccccn3)nnc2-c2ccccc2)cc1	·	·	·	·	·	·	3.73µM*
CC(C)(C)c1ccc(-c2nc(NCc3cccnc3)c3ccccc3n2)cc1	-2.6	·	-5.3	·	-9.6	-2.0	·

Random excerpt: three records from the list
SMILES	CAL PDZ FP-1	PglD inh	ARNT-TACC3 inh	Yeast UUG start	Vif imaging	CAL PDZ FP-2	ARNT Alpha ctr-1	others
CCOc1ccccc1Nc1nc(N)nc(CN(C)C2CCCCC2)n1	·	0.2	62.7*	-10.0	4.7	-3.6	-16.4%
FC(F)(F)c1cnc(-c2cnc(-c3ccncc3)nc2)c(Cl)c1	0.4	·	0.2	·	-1.2	-2.0	·
CCOc1ccccc1Nc1nc(N)nc(CSc2nccc(C)n2)n1	·	-1.2	2.9	-1.0	-5.4	-6.6	·
